Test results reported in article PMC3714011 (Journal of medicinal chemistry, 2013).

Legend:
[1] = tested on: initiator methionine of TXNL1 in HEK293T cells; experiment: Initiator methionine release assay, TXNL1-3×Flag in HEK293T cells; type: cell-based, human; conditions: co-treatment 10 μM 11j and 100 nM TNP-470, p = 0.03 versus TNP-470 only
[2] = tested on: iMet processing of 14-3-3γ in HDFa cells

## COc1ccc(N2CCN(c3nc(-c4ccccn4)nc4ccccc34)CC2)cc1 [11j, 4-[4-(4-Methoxyphenyl)piperazin-1-yl]-2-(pyridin-2-yl)quinazoline]
[1]
  [35S]-Met released from TXNL1-3×Flag relative to vehicle control: 2.73 fold
[2]
  inhibition of the NME of 14-3-3γ: dose-dependently inhibited
